For 54 compounds, inhibition results are on record in PubChem BioAssay AID2073 (Sanford-Burnham Center for Chemical Genomics, 2009).

The chains behind the UniProt entries cited, without tags or fusion partners.
UniProt Q00975, whole entry: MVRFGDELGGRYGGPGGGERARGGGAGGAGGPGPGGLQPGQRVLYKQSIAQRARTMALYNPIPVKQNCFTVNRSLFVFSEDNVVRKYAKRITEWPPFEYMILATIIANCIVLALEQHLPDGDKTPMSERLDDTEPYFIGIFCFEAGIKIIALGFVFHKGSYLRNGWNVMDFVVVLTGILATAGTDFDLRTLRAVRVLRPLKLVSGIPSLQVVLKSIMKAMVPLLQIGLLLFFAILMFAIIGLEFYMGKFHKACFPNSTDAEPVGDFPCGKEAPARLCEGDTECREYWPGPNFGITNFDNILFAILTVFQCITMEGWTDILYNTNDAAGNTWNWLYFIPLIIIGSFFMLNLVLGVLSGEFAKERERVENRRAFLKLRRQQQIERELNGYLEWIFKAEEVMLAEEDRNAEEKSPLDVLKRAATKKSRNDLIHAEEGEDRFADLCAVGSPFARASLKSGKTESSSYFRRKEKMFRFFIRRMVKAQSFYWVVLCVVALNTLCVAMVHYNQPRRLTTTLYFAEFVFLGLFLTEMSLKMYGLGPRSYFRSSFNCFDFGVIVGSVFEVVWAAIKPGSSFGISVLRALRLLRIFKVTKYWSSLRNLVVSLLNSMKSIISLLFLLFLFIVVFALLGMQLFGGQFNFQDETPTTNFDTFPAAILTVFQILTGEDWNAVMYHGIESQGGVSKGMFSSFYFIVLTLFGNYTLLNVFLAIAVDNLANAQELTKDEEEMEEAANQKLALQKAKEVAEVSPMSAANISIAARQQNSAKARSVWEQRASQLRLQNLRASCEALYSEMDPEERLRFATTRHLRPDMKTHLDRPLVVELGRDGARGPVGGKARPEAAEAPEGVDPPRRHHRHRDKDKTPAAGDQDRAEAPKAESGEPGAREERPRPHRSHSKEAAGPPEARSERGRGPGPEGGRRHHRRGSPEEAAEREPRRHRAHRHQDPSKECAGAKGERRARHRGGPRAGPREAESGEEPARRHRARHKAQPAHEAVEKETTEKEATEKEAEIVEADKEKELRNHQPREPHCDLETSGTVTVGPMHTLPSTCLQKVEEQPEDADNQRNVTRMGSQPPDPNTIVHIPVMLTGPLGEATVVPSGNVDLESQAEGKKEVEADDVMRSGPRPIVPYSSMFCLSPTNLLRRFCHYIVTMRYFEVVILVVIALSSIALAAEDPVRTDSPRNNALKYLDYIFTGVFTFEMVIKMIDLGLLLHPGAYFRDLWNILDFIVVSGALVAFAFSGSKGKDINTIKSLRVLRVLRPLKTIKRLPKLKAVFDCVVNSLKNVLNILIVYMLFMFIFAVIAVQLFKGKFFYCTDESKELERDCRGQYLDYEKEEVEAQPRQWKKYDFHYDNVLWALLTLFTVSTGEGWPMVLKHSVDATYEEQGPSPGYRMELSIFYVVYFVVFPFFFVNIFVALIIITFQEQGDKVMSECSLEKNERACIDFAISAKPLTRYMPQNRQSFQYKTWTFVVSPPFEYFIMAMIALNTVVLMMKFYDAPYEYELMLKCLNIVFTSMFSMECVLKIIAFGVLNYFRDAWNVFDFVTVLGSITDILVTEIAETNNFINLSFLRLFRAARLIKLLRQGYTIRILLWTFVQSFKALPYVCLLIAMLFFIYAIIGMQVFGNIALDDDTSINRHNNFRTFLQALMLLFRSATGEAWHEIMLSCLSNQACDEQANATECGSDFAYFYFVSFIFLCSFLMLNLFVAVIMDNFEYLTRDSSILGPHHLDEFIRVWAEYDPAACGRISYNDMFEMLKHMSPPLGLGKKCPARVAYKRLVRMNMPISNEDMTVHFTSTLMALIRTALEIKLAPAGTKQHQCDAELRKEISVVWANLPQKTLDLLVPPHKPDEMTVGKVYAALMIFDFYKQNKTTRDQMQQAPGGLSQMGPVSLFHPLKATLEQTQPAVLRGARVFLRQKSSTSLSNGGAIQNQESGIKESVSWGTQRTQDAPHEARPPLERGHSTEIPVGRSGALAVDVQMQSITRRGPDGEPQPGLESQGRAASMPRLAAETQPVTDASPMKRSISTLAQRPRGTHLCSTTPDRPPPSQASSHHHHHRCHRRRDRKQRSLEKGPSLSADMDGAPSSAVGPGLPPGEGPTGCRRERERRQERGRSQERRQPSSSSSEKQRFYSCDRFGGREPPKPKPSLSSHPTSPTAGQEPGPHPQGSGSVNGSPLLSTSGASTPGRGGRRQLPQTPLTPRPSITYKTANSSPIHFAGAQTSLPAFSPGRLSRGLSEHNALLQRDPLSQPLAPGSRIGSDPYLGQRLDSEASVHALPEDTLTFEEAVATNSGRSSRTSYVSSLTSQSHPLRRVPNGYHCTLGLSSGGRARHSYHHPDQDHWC

This is a selection; strong and weak results do not stand in their true shares. Measured potencies and affinities stand elsewhere. Active and inactive are the calls of the source. Cut-off read from the data, not from the text of the source: active = inhibition mostly above about 51% (no sharp cut-off); inconclusive = no clear call, values can overlap the other calls; inactive = mostly below about 53%.

This test has as its target Voltage-dependent N-type calcium channel subunit alpha-1B (Homo sapiens) (UniProt Q00975). As to the kind of experiment: inhibitors of Mint1-CaV2.2 protein interaction, biochemical, HTRF (AID 2073). As to conditions: at 20 µM, hits give high values. (Time-resolved FRET reads energy transfer from a long-lived donor to a nearby acceptor.)
The term inhibition denotes the relative decrease from the control value, in per cent. Turning to `COc1ccc(C(=O)NCC2(N3CCOCC3)CCCCC2)cc1OC`, the inhibition was inactive: 1.1%. Then `CCOC(=O)N1CCC(Nc2ccc(C)cc2)CC1`, with inactive: 3.5%. Then `N/C(=N\O)c1c(N)no[n+]1[O-]`, with inactive: -2.7%; and `O=C(OC1CN2CCC1CC2)C1c2ccccc2C=Cc2ccccc21` (centres undefined), with inactive: 4.2%. To `N#Cc1ccc(C(=O)NCC2(N3CCCCC3)CCCCC2)cc1` belongs inactive: -5.3%. In the case of `CC(C)(C)OC(=O)N1CCC(N(C(=O)c2ccccc2)c2ccc(Cl)cc2)CC1`, the inhibition is inactive: 0.8%.

For `CN(C)C1(CNC(=O)c2cccc(C#N)c2)CCCCC1`, the inhibition is inactive: 14.2%. On to `c1ccc(CN2CCC(Nc3ccccc3)CC2)cc1`, for which the inhibition is inactive: -10.1%. Regarding `CCCN1CCC(Nc2cc(OC)cc(OC)c2)CC1`, the inhibition is inactive: -7.3%.

In the case of `COc1cc(OC)cc(C(=O)NCC2(N3CCCCC3)CCCCC2)c1`, the inhibition was inactive: 9.7%. Then `Fc1ccccc1NC1CCN(Cc2ccccc2)CC1`, with inactive: -2.4%; and `CCN1CCC(Nc2cccc(F)c2)CC1`, with inactive: -2.6%; and `CN(C)c1ccc(C(=O)NCC2(N3CCCCC3)CCCCC2)cc1`, with inactive: -0.2%. To `CCOc1ncccc1C(=O)NCC1(N2CCOCC2)CCCCC1` belongs inactive: 1.7%; to `CN1CCC(Nc2ccc(F)c(Cl)c2)CC1`, inactive: -4.3%; to `CC(C)(C)OC(=O)N1CCC(Nc2ccccc2)CC1`, inactive: -5.9%. Turning to `O=C(O)C1(Nc2ccccc2)CCN(Cc2ccccc2)CC1`, the inhibition is inactive: 7.7%. Then `CCCOc1ccc(C(=O)NCC2(N(C)C)CCCCC2)cc1`, with inactive: 3.5%; and `COc1cc(OC)cc(C(=O)NCC2(N3CCOCC3)CCCCC2)c1`, with inactive: 17.2%; and `COc1cccc(C(=O)N(c2cc(C)cc(C)c2)C2CCN(C(=O)OC(C)(C)C)CC2)c1`, with inactive: 12%. With `CCC(CO)(C(=O)OC1CN2CCC1CC2)c1ccccc1` (centres undefined), the inhibition is inactive: -7.3%. Then `CN1CCC(Nc2ccc(Cl)cc2)CC1`, with inactive: 2%; and `CCCOc1ccc(C)cc1CN(CCCl)CCCl`, with inactive: -4.9%; and `COc1ccc(C(=O)NCC2(N3CCCCC3)CCCCC2)cc1`, with inactive: 25.9%. With `CC(C)(C)OC(=O)N1CCC(N(C(=O)c2ccccc2)c2ccc(F)cc2)CC1`, the inhibition is inactive: 2%. Take `COc1ccc(C(=O)NCC2(N3CCCCC3)CCCCC2)c(OC)c1OC`: the inhibition is inactive: -2%.

On to `O=C(NCC1(N2CCCCC2)CCCCC1)c1ccc(=O)[nH]c1`, for which the inhibition is inactive: -5.3%. With `CSc1ccccc1C(=O)NCC1(N2CCCCC2)CCCCC1`, the inhibition is inactive: 9.6%.

For `Cc1cc(C)cc(N(C(=O)c2ccccc2)C2CCN(C(=O)OC(C)(C)C)CC2)c1`, the inhibition is inactive: 12.4%. To `O=C(NCC1(N2CCOCC2)CCCCC1)c1cc2ccccc2o1` belongs inactive: 7.5%; to `N#CC1(Nc2ccccc2)CCN(Cc2ccccc2)CC1`, inactive: 10%.

With `O=C(OC1CN2CCC1CC2)C1c2ccccc2Oc2ccccc21` (centres undefined), the inhibition was inactive: -11.9%. As for `CCOC(=O)N1CCC(Nc2ccc(OC)cc2)CC1`, the inhibition is inactive: -3.4%. On to `CCOc1ccc(C)cc1CN(CCCl)CCCl`, for which the inhibition is inactive: 12.9%.

In the case of `O=C(NCC1(N2CCCCC2)CCCCC1)c1ccc(F)cc1`, the inhibition was inactive: 0.4%. To `COc1ccc(NC2CCN(CCc3ccccc3)CC2)c(OC)c1` belongs inactive: -54.6%; to `CCOC(=O)N1CCC(Nc2ccc(F)cc2)CC1`, inactive: 9.7%; to `CCOC(=O)N1CCC(Nc2cccc(C)c2)CC1`, inactive: 1.8%. To `COc1cc(C(=O)NCC2(N(C)C)CCCCC2)ccc1OC(F)F` belongs inactive: -0.6%. In the case of `Cc1ccc(OCC(C)C)c(CN(CCCl)CCCl)c1`, the inhibition was inactive: 5.1%. To `O=C(NCC1(N2CCCCC2)CCCCC1)c1ccc(OC(F)F)cc1` belongs inactive: -0.4%. In the case of `CCN1CCC(Nc2ccc(Cl)cc2)CC1`, the inhibition is inactive: 14.1%. To `N#CC1(Nc2ccccc2)CCN(CCc2ccccc2)CC1` belongs inactive: -14.7%; to `O=C(NCC1(N2CCCCC2)CCCCC1)c1cccc([N+](=O)[O-])c1`, inactive: -4.9%. Then `O=C(NCC1(N2CCCCC2)CCCCC1)c1cccc(C(F)(F)F)c1`, with inactive: 6.1%.

As for `COc1cc(C(=O)NCC2(N3CCCCC3)CCCCC2)ccc1OC(F)F`, the inhibition is inactive: -5.9%. To `O=C(NCC1(N2CCOCC2)CCCCC1)c1cc(=O)[nH]c2ccccc12` belongs inactive: 3.3%. Then `CN1CCN(CCOC(=O)C(O)(c2ccccc2)c2ccccc2)CC1`, with inactive: 0%; and `COc1ccc(NC2CCN(C(=O)OC(C)(C)C)CC2)cc1`, with inactive: -40%. In the case of `CC(C)c1ccc(NC2CCN(C(=O)OC(C)(C)C)CC2)cc1`, the inhibition is inactive: -12.9%. `COc1ccc(CN(CCCl)CCCl)cc1Cl`: the inhibition was inactive: -9.8%. To `CN(C)c1cccc(C(=O)NCC2(N3CCCCC3)CCCCC2)c1` belongs inactive: 4.8%.

Turning to `COc1cc(OC)c(C(=O)NCC2(N(C)C)CCCCC2)cc1OC`, the inhibition is inactive: 4.8%. Then `CCCOc1ccc(C(=O)NCC2(N(C)C)CCCCC2)cc1OC`, with inactive: 19.6%.
